Values quoted from earlier work as cited in US11713305B2, “Zinc sensors for in vivo imaging of beta-cell function by MRI” (The Board of Regents of the University of Texas System, priority 2017, dated 2023).

Details: Stewart et al., 2003; read-out: binding affinity for Zn^2+ ions; cited from earlier work

**Q.** With “Human serum albumin: the most abundant protein in plasma” as the substance, how does the Kd read?
**A.** The Kd was 29.5 nM.
